# Experimental data published in patent US20180298101A1 (published 2018).
# Columns and labels:
# [1] = biological target: human CIS lacking both the N-terminal region (residues 1-66) and the PEST motif (ΔNT/ΔPEST) in trimeric … (UniProt Q9NSE2 67-258; Q15370 1-118; Q15369 17-112); experiment: ITC
# [2] = biological target: human full-length CIS in trimeric complex with elongin B and elongin C (UniProt Q9NSE2 1-258; Q15370 1-118; Q15369 17-112); experiment: ITC
binder,measurement,setting,value
"LLPLDKDYYVVREPGQ (phosphotyrosine at Tyr980 and Tyr981 (JAK3 numbering)) [JAK3 activation loop phosphopeptide, doubly phosphorylated (JAK3-Y980, Y981)]",Kd,[1],700 nM
same,Kd,[2],1100 nM
